The list shows a part of the results, in another mix than the full data. Some tests of the compounds listed are not included; inactive here does not mean inactive elsewhere. Records with an inconclusive call do not appear. Calls of active or inactive are those of the source. Rule as the data show it: active = activity change below about -50%; inconclusive = mostly about -30% to -49%; inactive = weaker than that.

26 compounds from PubChem BioAssay AID743279 (National Center for Advancing Translational Sciences (NCATS), 2014) can be followed below.
% is scaled to controls: 0 for no effect and ±100 for the full control effect.

The test in a line: qHTS for Inhibitors of Inflammasome Signaling: IL-1-beta AlphaLISA Primary Screen. As to conditions: THP-1 LPS/ATP IL-1B secretion, 16 h; at 57.5 µM, hits give low values. The text has this:
Inflammasomes are a set of intracellular multi-protein complexes that enable autocatalytic activation of inflammatory caspases and drive the innate immune response to counter harmful agents. […] A qHTS assay, based on AlphaLISA technology, was developed to screen the Molecular Libraries Small Molecule Repository (MLSMR) to look for novel inflammasome inhibitors. The assay detects IL-1B using AlphaLISA anti-IL-1B acceptor and donor beads. A decreased emission signal, indicating reduced IL-1B secretion, is the desired outcome for this assay. NIH Chemical Genomics Center [NCGC] NIH Molecular Libraries Probe Centers Network [MLPCN] MLPCN Grant: MH095513 Assay Provider: Shyam Biswal Ph.D., Johns Hopkins University Immunity. 2012 Jul 27;37(1):85-95. PMID: 22819042 [2] Curr Pharm Des. 2012;18(16):2320-8. PMID: 22390695
Three microliters containing 3000 THP-1 cells were dispensed into the wells of solid, white, tissue culture treated Greiner 1,536-well plates. Library compounds and positive control, Glyburide, were pin-transferred (23 nL) by a Kalypsys pin-tool equipped with a 1,536-pin array, resulting in final compound concentration ranges of 2.5 nM to 57.5 uM. After 1 hr of cell culture incubation (37 °C, 5% CO2), 1 microL of 1 microg/mL lipopolysaccharide (250 ng/mL, final) and 5 mM ATP (1.25 mM, final) were added to stimulate the cells. After 16 hr of cell culture incubation with the compounds, 1.5 uL of anti-IL-1B acceptor beads (6 ug/mL, final) and biotinylated antibody (0.6 nM, final) were added to the plate, followed by a 1 hr incubation at ambient temperature. To detect the secreted IL-1B, 1.5 uL of AlphaLISA SA-Donor beads (24 ug/mL, final) were added, followed by 30 min of incubation in the dark at ambient temperature. The AlphaLISA signal was read by a PerkinElmer EnVision plate reader with an ultrasensitive luminescence detector and 1536 Plate HTS AlphaScreen aperture (excitation of 680nm and emission of 615nm).
As for `COc1cc(C(=O)NCC2(N(C)C)CCCCC2)c([N+](=O)[O-])cc1OC`, the activity change is inactive: 4.77%.

On to `CN(C)C1(CNC(=O)c2ccc(Br)cc2)CCCCC1`, for which the activity change is inactive: -9.49%.

Regarding `O=C(NCC1(N2CCCCC2)CCCCC1)c1cccc(Cl)c1`, the activity change is inactive: -8.09%.

Take `COc1cccc(C(=O)NCC2(N3CCCCC3)CCCCC2)c1`: the activity change is inactive: 11%.

Take `COc1ccc(Cl)cc1C(=O)NCC1(N(C)C)CCCCC1`: the activity change is inactive: -20.9%.

Regarding `O=C(OC1CN2CCC1CC2)C(CO)(c1ccccc1)c1ccccc1` (stereo unspecified), the activity change is inactive: -15.5%.

Regarding `CN(C)c1cccc(C(=O)NCC2(N(C)C)CCCCC2)c1`, the activity change was inactive: 7.66%.

Regarding `CC(C)Oc1ccc(C(=O)NCC2(N(C)C)CCCCC2)cc1`, the activity change is inactive: 16.1%.

With `O=C(OCCN1CCCC1)C(O)(c1ccccc1)c1ccccc1`, the activity change is inactive: -15.9%.

Turning to `COc1ccc(Br)c(C(=O)NCC2(N3CCCCC3)CCCCC2)c1`, the activity change was inactive: 21.8%.

As for `C=C(C)C#CC(O)(C(=O)OC1CCN(C)CC1)c1ccccc1` (stereo unspecified), the activity change was inactive: -12.5%.

In the case of `CN1[C@@H]2CC[C@H]1CC(OC(=O)C(O)(c1ccccc1)c1ccccc1)C2` (stereo partly specified), the activity change is inactive: -11.8%.

Turning to `O=C(NCC1(N2CCCCC2)CCCCC1)c1cc([N+](=O)[O-])ccc1Cl`, the activity change entry is “active”.

On to `Cc1ccc(C(=O)NCC2(N3CCCCC3)CCCCC2)cc1`, for which the activity change is inactive: -6.33%.

As for `CC(C)N1C(=O)CC2(CCN(CCOC(=O)C(O)(c3ccccc3)c3ccccc3)CC2)C1=O`, the activity change was inactive: 10.6%.

With `CCN(CC)CC(C)C(C)OC(=O)C(O)(c1ccccc1)c1ccccc1` (stereo unspecified), the activity change is inactive: -21.3%.

`COc1cc(SC)ccc1C(=O)NCC1(N(C)C)CCCCC1`: the activity change is inactive: 6.14%.

As for `Cc1ccccc1C(=O)NCC1(N2CCCCC2)CCCCC1`, the activity change is inactive: -3.88%.

On to `CN(C)c1ccc(C(=O)NCC2(N(C)C)CCCCC2)cc1`, for which the activity change was inactive: -7.22%.

As to `CN(C)C1CCCC1OC(=O)C(O)(c1ccccc1)c1ccccc1` (stereo unspecified), the activity change is inactive: -15.7%.

Take `CCN1CCCC(OC(=O)C2(O)c3ccccc3C=Cc3ccccc32)C1` (stereo unspecified): the activity change is inactive: -28.6%.

Consider `Cc1cc(C(=O)NCC2(N3CCCCC3)CCCCC2)ccc1[N+](=O)[O-]`, for which the activity change is inactive: -3.9%.

With `O=C(NCC1(N2CCCCC2)CCCCC1)c1cccc(Br)c1`, the activity change is inactive: 7.03%.

With `COc1ccc(C(=O)NCC2(N(C)C)CCCCC2)cc1`, the activity change is inactive: -7.01%.

As to `C=CCN1CCN(CCOC(=O)C(O)(c2ccccc2)c2ccccc2)CC1`, the activity change is inactive: 13.3%.

Consider `O=C(NCC1(N2CCCCC2)CCCCC1)c1cc(F)c(F)cc1Cl`, for which the activity change is inactive: -17.9%.
